Rows were chosen to be rich in hits. Some 16% of all compounds tested hit in one or more screens of this group.
DT40 TDP1 no CPT – qHTS for Inhibitors of human tyrosyl-DNA phosphodiesterase 1 (TDP1): qHTS in cells in absence of CPT; DT40 Tdp1-/- hTDP1 cells, no CPT, ATP luminescence, 48 h; Potency, µM (top dose mostly 46.2 µM), for the others: top-dose activity change, negative = growth inhibition, most hits filed as inhibitors; 420,000 tested, 15% active; note: potency is the fitted concentration of half-maximal effect; % is set by controls: 0 for no effect and ±100 for the full control effect; nearly all actives have a fitted effect of over 55% in size
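Stably hTDP1-transfected Tdp1-null chicken DT40 cells were treated with library compounds minus camptothecin and grown for at least 48 hr at 37 °C, after which cellular ATP was quantified by luminescence.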
TDP1 inh – inhibitors of human tyrosyl-DNA phosphodiesterase TDP1 | Q9NUW8 | 350,000 tested, 0.28% active | Potency, µM (titrated, usually from 130 µM), for inactives: at the top dose activity change, negative = inhibition, hits mostly inhibitors | recombinant TDP1, AlphaScreen DNA substrate cleavage; note: potency is the fitted concentration of half-maximal effect; % is set by controls: 0 for no effect and ±100 for the full control effect; nearly all actives have a fitted effect of over 40% in size
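Recombinant E. coli-expressed Tdp1 (1 nM) preincubated with compound 15 min at RT, then 5'-biotin/3'-phosphotyrosine-FITC DNA substrate (15 nM) added for 5 min. AlphaScreen beads (10 ug/ml) added, 10 min RT; tyrosine-FITC cleavage read as signal loss.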
miR-21 reporter – raises the signal of a miR-21 reporter | Potency, µM (doses to about 38.3 µM), for inactives: top-dose reporter change, positive = more light | HeLa miR-21 FLuc reporter, luciferase, 48 h | AID 2288 | 340,000 tested, under 10 active; active = well fitted rising curve with a large enough effect; inconclusive = small, poorly fitted or top-dose-only effect; inactive = no such curve, though single readings can be large or run the other way;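 also: % of control where 0% means no effect; miR-21 action dims this reporter so a rising signal means less miR-21 action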
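HeLa cells stably expressing CMV-driven firefly luciferase with a downstream miR-21 binding sequence, endogenously expressing miR-21, were treated with titrations (up to about 40uM final) for 48 hours at 37 degree Celsius. Luciferase luminescence was read after lysis.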
DT40 TDP1 CPT – growth inhibition of DT40 Tdp1-/-;hTDP1 cells with camptothecin (screen for TDP1 inhibitors) | chicken DT40 Tdp1-/-;hTDP1 cells + 20 nM CPT, ATP luminescence, 48 h | Potency, µM (titrated, usually from 46.2 µM), without a hit: at the highest dose activity change, negative = growth inhibition, usual class: inhibitors | 420,000 tested, 12% active; note: potency is the fitted concentration of half-maximal effect; % is set by controls: 0 for no effect and ±100 for the full control effect; nearly all actives have a fitted effect of over 55% in size
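Cell growth measured by CellTiter-Glo luminescence after a minimum 48 h, 37 C compound exposure with 20 nM CPT in Tdp1-knockout DT40 cells stably expressing hTDP1, seeded 400/well; qHTS titration format.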
uPA generation – blocks generation of uPA at the cell surface | 330,000 tested, 0.31% active | AID 540303 | Potency, µM (highest dose often 38.3 µM), without a hit: top-dose activity change, negative = inhibition, hits mostly inhibitors | cell surface uPA generation assay, qHTS; active = well fitted inhibition curve with a large enough effect; inconclusive = small, poorly fitted or top-dose-only effect; inactive = no such curve, though single readings can be large or run the other way; tested in mouse RAW 264.7 cells; note: potency is the fitted concentration of half-maximal effect; % is set by controls: 0 for no effect and ±100 for the full control effect; nearly all actives have a fitted effect of over 55% in size
Starred values were filed as active, the others as inactive; ? = inconclusive; · = no result; [ ] = another dose, or the depositor's remark. Unless noted, calls come from the whole dose curve; as a rule, active = well fitted curve in the direction sought with a large enough effect; inconclusive = small, poorly fitted or top-dose-only effect, or another doubt; inactive = no such curve, though single readings can be large; an effect the other way counts as inactive or inconclusive.

Short forms – A = DT40 TDP1 no CPT; B = TDP1 inh; C = miR-21 reporter; D = DT40 TDP1 CPT; E = uPA generation
1: CCOC(=O)c1c[nH]n(-c2ccc(C)cc2)c1=O
  A: -13%; B: -8%; C: -37%; D: -11%; E: 1%

2: CCOC(=O)c1cc2c(C)n(-c3ccc(C)cc3)c(C)c2ccc1=O
  A: 8.2µM*; B: 6%; C: 3%; D: 15µM*; E: -13%

3: Cc1cc2c(cc1NC(=O)c1ccccc1C)n(C)c(=O)c(=O)n2C
  A: 2%; B: 5%; C: 3%; D: -1%; E: ·

4: Nc1sc(-c2ccccc2)n[n+]1Cc1cccc2cccnc12
  A: 23µM*; B: 2%; C: 26%; D: ?; E: 7%

5: CCCCN(C)C(=O)C1CCCN(c2ncnc3onc(-c4ccc(F)cc4)c23)C1 (stereo not given)
  A: 23µM*; B: 3%; C: 0%; D: 15µM*; E: ·

6: CCCN(CCC)C(=O)C1CCCN(c2ncnc3onc(-c4ccc(F)cc4)c23)C1 (stereo not given)
  A: 16µM*; B: -1%; C: -5%; D: 5.2µM*; E: ·

7: CC(C)N(Cc1ccccc1)C(=O)C1CCCN(c2ncnc3onc(-c4ccc(F)cc4)c23)C1 (stereo not given)
  A: 5.2µM*; B: 6%; C: 25%; D: 7.3µM*; E: ·

8: CCOC(=O)c1cnc2c(Cl)cc(Cl)cc2c1NCCOCCO
  A: ?; B: 7%; C: 0%; D: ?; E: -17%

9: CN(C)C(=S)N=c1ssc(=S)n1Cc1cccnc1
  A: 2.6µM*; B: ·; C: ·; D: 1.8µM*; E: -4%

10: CC(C)Cn1cnc2c(SCc3ccccc3F)nc(N)nc21
  A: ?; B: ·; C: ·; D: ?; E: -5%

11: CCC(C)Cn1cnc2c(SCc3ccccc3F)nc(N)nc21 (stereo not given)
  A: 21µM*; B: ·; C: ·; D: ?; E: -3%

12: C[C@]12C[C@H](O)C3[C@@H](CCC4=CC(=O)CC[C@@]43C)[C@@H]1CC[C@@H]2C(=O)CO (stereo not given in full)
  A: ·; B: 10%; C: ·; D: ·; E: ·

13: COC(=O)c1ccc(C(=O)OC)c(NC(=O)N2c3ccccc3Sc3ccccc32)c1
  A: ?; B: 0%; C: -10%; D: ?; E: -1%

14: CC(C)NC(=O)N1c2ccccc2Sc2ccccc21
  A: ?; B: ·; C: 21%; D: ?; E: -1%

15: CCOc1ccccc1NC(=O)N1c2ccccc2Sc2ccccc21
  A: 26µM*; B: ·; C: 10%; D: ?; E: ·

16: O=C(c1cccnc1)N1c2ccccc2Sc2ccccc21
  A: 15µM*; B: 1%; C: 23%; D: 15µM*; E: 2%

17: COc1ccc(OC)c(NC(=O)N2c3ccccc3Sc3ccccc32)c1
  A: ?; B: ·; C: -16%; D: 18µM*; E: ·

18: COc1ccccc1C(=O)N1c2ccccc2Sc2ccccc21
  A: 5.8µM*; B: 3%; C: 30%; D: 5.8µM*; E: -2%

19: Cc1ccc(C(=O)N2c3ccccc3Sc3ccccc32)cc1
  A: 7%; B: ·; C: ·; D: -2%; E: ·

20: Cc1cccc(/C=C2\CS/C(=C\c3cccc(C)c3)C2=O)c1
  A: -28%; B: 1%; C: -1%; D: -6%; E: 0%

21: CCOc1ccccc1NC(=O)/C=C/C(N)=O
  A: 4.1µM*; B: 6%; C: 21%; D: 4.1µM*; E: ?

22: COC(=O)c1ccccc1NC(=O)N1c2ccccc2Sc2ccccc21
  A: ?; B: 1%; C: 12%; D: 18µM*; E: -1%

23: CCOc1ccccc1C(=O)N1c2ccccc2Sc2ccccc21
  A: 13µM*; B: -1%; C: 17%; D: 10µM*; E: -12%

24: CCOc1ccccc1NC(=O)Nc1cccc(C(C)=O)c1
  A: -30%; B: 2%; C: -1%; D: 29µM*; E: -3%

25: CC(C)CNCC(=O)N1c2ccccc2Sc2ccccc21
  A: ?; B: -2%; C: -15%; D: 16µM*; E: 2%

26: COCCNCC(=O)N1c2ccccc2Sc2ccccc21
  A: -17%; B: 3%; C: -7%; D: -9%; E: -2%

27: CC1(C(=O)NCc2ccccc2)CN(S(C)(=O)=O)CC(=O)N1CCc1c[nH]c2ccccc12 (stereo not given)
  A: 7%; B: ·; C: ·; D: 13µM*; E: ·

28: COc1cc(OC)cc(-c2nnc(SCc3cccnc3)o2)c1
  A: -25%; B: 3%; C: -36%; D: 26µM*; E: -9%

29: COc1cccc(-c2nnc(SCc3cccnc3)o2)c1
  A: -25%; B: 4%; C: -31%; D: -1%; E: 0%

30: CC(=O)Nc1ccc(S(=O)(=O)N2CCN(S(=O)(=O)N3CCOCC3)CC2)cc1
  A: ?; B: 13%[0.0935 µM]; C: 0%; D: ?; E: 1%

31: CC(C)CCCCCCNC(=S)Nc1ccc(S(=O)(=O)N2CCOCC2)cc1
  A: 13µM*; B: 6%; C: ?; D: 16µM*; E: ?

Three entries from above, with values under each structure:
Each structure is followed by: DT40 TDP1 no CPT | TDP1 inh | miR-21 reporter | DT40 TDP1 CPT | uPA generation
22: COC(=O)c1ccccc1NC(=O)N1c2ccccc2Sc2ccccc21
    ? | 1% | 12% | 18µM* | -1%
30: CC(=O)Nc1ccc(S(=O)(=O)N2CCN(S(=O)(=O)N3CCOCC3)CC2)cc1
    ? | 13%[0.0935 µM] | 0% | ? | 1%
31: CC(C)CCCCCCNC(=S)Nc1ccc(S(=O)(=O)N2CCOCC2)cc1
    13µM* | 6% | ? | 16µM* | ?
